Measurements published in BindingDB's records for doi:10.1016/j.bmcl.2012.07.045 (Rhône-Poulenc Rorer, 2012).

Biological target: Tyrosine-protein kinase SYK (Homo sapiens) (UniProt P43405)
Experiment: Inhibition of human recombinant full-length Syk using poly-GT as substrate after 40 mins by radioactive filtration assay

SMILES: FC(F)(F)c1ccnc(Nc2cccc(-c3cccc(N4CCNCC4)c3)n2)c1
- IC50: 0.6 nM
